Rows were chosen to be rich in hits. Some 16% of all compounds tested hit in one or more screens of this group.
TDP1 block – blocks human tyrosyl-DNA phosphodiesterase 1. Q9NUW8. recombinant TDP1, AlphaScreen DNA substrate cleavage. Potency, µM (top dose mostly 130 µM), most hits filed as inhibitors. actives 0.28% (n = 350,000); note: nearly all actives have a fitted effect of over 40% in size
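AlphaScreen read-out: signal falls as enzyme removes the 3' tyrosine-FITC from a 5'-biotinylated DNA oligo (15 nM, 5 min, RT). Enzyme was E. coli-made recombinant Tdp1 at 1 nM, exposed to compound for 15 min beforehand; beads 10 ug/ml, 10 min.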
TDP1 cell CPT – DT40-hTDP1 cell growth loss with CPT; chicken DT40 Tdp1-/-;hTDP1 cells + 20 nM CPT, ATP luminescence, 48 h; Potency, µM (top dose mostly 46.2 µM), hits mostly inhibitors; actives 12% (n = 420,000); note: nearly all actives have a fitted effect of over 55% in size
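Chicken DT40 Tdp1-/- cells complemented with human TDP1, 400 cells/well, exposed to compounds plus 20 nM camptothecin for at least 48 h at 37 C; viability read as ATP content by CellTiter-Glo luminescence.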
uPA surface inh – blocks generation of uPA at the cell surface; AID 540303; Potency, µM (series often up to 38.3 µM), hits mostly inhibitors; actives 0.31% (n = 330,000); cell surface uPA generation assay, qHTS; active = well fitted inhibition curve with a large enough effect; inconclusive = small, poorly fitted or top-dose-only effect; inactive = no such curve, though single readings can be large or run the other way; tested in mouse RAW 264.7 cells; note: nearly all actives have a fitted effect of over 55% in size
DT40 TDP1 no CPT – qHTS for Inhibitors of human tyrosyl-DNA phosphodiesterase 1 (TDP1): qHTS in cells in absence of CPT | actives 15% (n = 420,000) | DT40 Tdp1-/- hTDP1 cells, no CPT, ATP luminescence, 48 h | AID 686978, 2013 | Potency, µM (top dose mostly 46.2 µM), most hits filed as inhibitors; note: nearly all actives have a fitted effect of over 55% in size
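Growth of hTDP1-complemented DT40 Tdp1-knockout cells is measured by ATP luminescence after at least 48 hr compound exposure at 37 °C, with DMSO substituting for the 20 nM CPT used in the parallel screen.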
miR-21 FLuc – raises the signal of a miR-21 reporter; HeLa miR-21 FLuc reporter, luciferase, 48 h; Potency, µM (highest dose often 38.3 µM); 340,000 tested, under 10 active; active = well fitted rising curve with a large enough effect; inconclusive = small, poorly fitted or top-dose-only effect; inactive = no such curve, though single readings can be large or run the other way;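 also: miR-21 action dims this reporter so a rising signal means less miR-21 action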
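HeLa cells endogenously expressing miR-21, stably carrying CMV-driven firefly luciferase with a downstream miR-21 binding site, 2000 cells/well. Titrations up to approximately 40 uM, 48 hours; luciferase luminescence read.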
Numbers stand for hits; - = inactive; ? = inconclusive; . = not tested or not shown; [ ] = dose if it differs, or a comment. Unless noted, calls come from the whole dose curve; as a rule, active = well fitted curve in the direction sought with a large enough effect; inconclusive = small, poorly fitted or top-dose-only effect, or another doubt; inactive = no such curve, though single readings can be large; an effect the other way counts as inactive or inconclusive.

SMILES	TDP1 block	TDP1 cell CPT	uPA surface inh	DT40 TDP1 no CPT	miR-21 FLuc
CCC(CC)NCC(O)COc1ccc(Br)cc1 (stereo not drawn)	.	?	-	21µM	-
CCCC(NCC(O)COc1ccc(-c2ccccc2)cc1)c1ccccc1 (stereo not drawn)	-	7.3µM	?	4.1µM	-
COc1ccc(OCC(O)CNC(C)c2ccccc2)cc1 (stereo not drawn)	.	?	-	?	-
COC(=O)c1cc(C(=O)N2CCN(c3cccc(Cl)c3)CC2)cc([N+](=O)[O-])c1	-	0.65µM	-	0.92µM	-
O=C(c1ccco1)N1CCN(c2c([N+](=O)[O-])nn(-c3cccc(Cl)c3)[n+]2[O-])CC1	-	16µM	-	?	-
Cc1ccc(Nc2ccc(N3CCN(C(=O)c4cccc([N+](=O)[O-])c4)CC3)nn2)cc1	-	?	.	16µM	-
COC(=O)c1cc(C(=O)N2CCOCC2)cc([N+](=O)[O-])c1	-	-	-	-	-
O=C(c1cccc([N+](=O)[O-])c1)N1CCN(c2ncccn2)CC1	.	-	-	-	-
Cc1c(C(=O)N2CCN(c3cccc(Cl)c3)CC2)cccc1[N+](=O)[O-]	-	16µM	-	16µM	-
CCC(C)NC(=O)COC(=O)c1csc2c1CCCC2 (stereo not drawn)	-	-	-	-	-
CCCNC(=O)OC[C@H]1O[C@@H](CCO/N=C2/C[C@@H](O)[C@@H](O)[C@@H]3[C@@H]4C(=O)N(CC)C(=O)[C@H]4CC[C@@H]23)C=C[C@@H]1Oc1ccc(OC)cc1	-[21 µM]	.	.	.	.
CCn1cc(S(=O)(=O)c2cc(C)cc(C)c2)c(=O)c2cc(F)c(N3CCOCC3)cc21	-	?	.	-	-
CC1Cc2c(COc3ccccc3)nc3c(c2CO1)CN(CCOc1ccccc1)CC3 (stereo not drawn)	-[21 µM]	.	.	.	.
O=C(c1cccc([N+](=O)[O-])c1)N1CCN(c2cccc(Cl)c2)CC1	-	18µM	-	18µM	-
O=S1(=O)C[C@H](N2CC[C@@H](O)C2)[C@@H](COCc2ccccc2)N1	.	-	.	-	.
[O-][n+]1c2ccccc2[n+]([O-])c2cc(O)ccc21	.	9.2µM	-	13µM	-
CC1=C(C(=O)N(C)C)CC(CC(=O)NCCCCc2ccccc2)C(=O)N1Cc1ccc(F)cc1 (stereo not drawn)	.	-	.	?	.
CC1=C(C(=O)N2CCCCCC2)CC(CC(=O)NCCCCc2ccccc2)C(=O)N1Cc1ccccc1 (stereo not drawn)	.	18µM	.	21µM	.
CCN(CC)C(=O)C1=C(C)N(Cc2ccc(F)cc2)C(=O)C(CC(=O)NCC2CCCCC2)C1 (stereo not drawn)	.	?	.	21µM	.
CC1=C(C(=O)N(C)C)CC(CC(=O)NCCCCc2ccccc2)C(=O)N1Cc1ccc(C(C)(C)C)cc1 (stereo not drawn)	.	16µM	.	13µM	.
CCN(CC)C(=O)C1=C(C)N(Cc2ccc(F)cc2)C(=O)C(CC(=O)NCCCCc2ccccc2)C1 (stereo not drawn)	.	?	.	21µM	.
CCN(CC)C(=O)C1=C(C)N(Cc2ccc(F)cc2)C(=O)C(CC(=O)NCCCN(C)C)C1 (stereo not drawn)	.	-	.	-	.
O=c1c2cnn(-c3ccc(Cl)cc3)c2ncn1Cc1ccc(Cl)cc1Cl	-	-	.	?	-
C[C@H](CO)N1C[C@H](C)[C@@H](CN(C)C(=O)NC2CCCCC2)Oc2ccc(NS(=O)(=O)c3cccs3)cc2C1=O	-	-	-	-	.
COc1cccc(N(C(=O)c2csnn2)C(C(=O)NC2CCCC2)c2ccccc2)c1 (stereo not drawn)	.	-	-	-	-
SMILES	TDP1 block	TDP1 cell CPT	uPA surface inh	DT40 TDP1 no CPT	miR-21 FLuc
CCC(C(=O)Nc1c(C)cccc1C)n1c(-c2ccc(=O)[nH]c2)nc2ccccc21 (stereo not drawn)	.	-	.	-	.
CSCCC(C(=O)Nc1c(C)cccc1C)n1c(-c2ccc(-c3ccccc3)cc2)nc2ccccc21 (stereo not drawn)	.	10µM	.	?	.
CSCCC(C(=O)Nc1c(C)cccc1C)n1c(COc2ccc(C)cc2)nc2ccccc21 (stereo not drawn)	.	12µM	.	9.2µM	.
CCC(C)NC(=O)[C@H](CSCc1ccccc1)N1Cc2ccccc2C1=O (stereo partly drawn)	-	-	-	-	-
COc1ccccc1CNc1ncnc2sc(C(=O)N3CCN(C)CC3)c(C)c12	.	-[9.04 µM]	.	-	.
O=C(Nc1ccc(Cl)cc1)Nc1ccc2c(c1)N1CCN=C1S2	-	23µM	-	21µM	-
CCS(=O)(=O)N1CCCC(C(=O)c2ccc(OC)cc2C)C1 (stereo not drawn)	-	-	.	-	-
COc1ccc(C(=O)C2CCCN(S(=O)(=O)c3ccc(C(C)=O)cc3)C2)c(C)c1 (stereo not drawn)	-	16µM	-	12µM	-
COc1ccc(C(=O)C2CCCN(C(=O)c3noc4c3CCCC4)C2)c(C)c1 (stereo not drawn)	-	?	-	21µM	-
COc1ccc(C(=O)C2CCCN(C(=O)C3=CCCC3)C2)c(C)c1 (stereo not drawn)	-	?	-	23µM	-
COc1ccc(C(=O)C2CCCN(C(=O)c3csc(C(C)=O)c3)C2)c(C)c1 (stereo not drawn)	-	?	-	-	-
COc1ccc(C(=O)C2CCCN(C(=O)c3noc4c3CCCC4)C2)cc1F (stereo not drawn)	.	?	-	18µM	-
COc1ccc(-n2c(N)c(Br)c(=O)[nH]c2=O)cc1	-	-	-	-	-
O=C(c1cn(-c2ccccc2)nc1-c1cccs1)N1CCN(c2ccccc2)CC1	-	7.3µM	.	7.3µM	-
O=C(N/N=C/c1cn(-c2ccccc2)nc1-c1cccs1)c1ccncc1	-	?	-	?	-
NS(=O)(=O)c1ccc(N/N=C/c2cn(-c3ccccc3)nc2-c2cccs2)cc1	-	5.2µM	-	2.9µM	-
NC(=O)N/N=C/c1cn(-c2ccccc2)nc1-c1cccs1	-	16µM	-	?	-
Cc1cccc(C(C#N)c2ccc(Cl)nn2)c1 (stereo not drawn)	-	-	-	-	-
O=[N+]([O-])c1c(NCCO)cc(N2CCCCCC2)c2nonc12	.	-	-	-	-
Cc1nnc(Sc2cc(NCCO)c([N+](=O)[O-])c3nonc23)s1	-	3.3µM	-	2.3µM	?
Cc1nnc(Sc2cc(NCCCO)c([N+](=O)[O-])c3nonc23)s1	-	1.5µM	-	2.1µM	?
O=C1O[C@@H](c2ccccc2)C[C@@H](O)[C@H](O)CCc2ccccc21	.	-	.	-	.
O=C(c1ccc2oc(Cc3ccc(Cl)cc3)nc2c1)N1CCCCC1CCO (stereo not drawn)	-	?	-	?	-
